Measured values published in PMC10518340, “Secreted LRPAP1 binds and triggers IFNAR1 degradation to facilitate virus evasion from cellular innate immunity” (Signal Transduction and Targeted Therapy, 2023).

System: IFNAR1
Assay: IFNAR1 mRNA level, HEK-293T cells
Assay type: cell-based, human
Conditions: with or without 1000 U/ml IFN-α2b

With “LDL-receptor-related protein-associated protein 1 [LRPAP1]” the “IFNAR1 mRNA level” value was “no effect on IFNAR1 mRNA levels”.
